Results on 16 compounds are retold here after ChEMBL document CHEMBL4346746, “Inhibition of 3-phosphoglycerate dehydrogenase (PHGDH) by indole amides abrogates de novo serine synthesis in cancer cells” (Bioorg Med Chem Lett, 2019).

Data set [1] can be described thus: Permeability of the compound at 10 uM at pH 7.4 by PAMPA. The class given is ADME. The note with it: read-out: permeability. A general note: The PAMPA barrier holds no transporters, so it reflects passive diffusion.
Data set [2] is described as follows: Apparent permeability across apical to basolateral side in MDCK cells overexpressing MDR1. Type of data set: ADME, cell-based, Canis lupus familiaris. As to conditions: dog.
In data set [3] the target is T1, D-3-phosphoglycerate dehydrogenase (Homo sapiens, UniProt O43175).
T1 sequence (O43175 whole entry): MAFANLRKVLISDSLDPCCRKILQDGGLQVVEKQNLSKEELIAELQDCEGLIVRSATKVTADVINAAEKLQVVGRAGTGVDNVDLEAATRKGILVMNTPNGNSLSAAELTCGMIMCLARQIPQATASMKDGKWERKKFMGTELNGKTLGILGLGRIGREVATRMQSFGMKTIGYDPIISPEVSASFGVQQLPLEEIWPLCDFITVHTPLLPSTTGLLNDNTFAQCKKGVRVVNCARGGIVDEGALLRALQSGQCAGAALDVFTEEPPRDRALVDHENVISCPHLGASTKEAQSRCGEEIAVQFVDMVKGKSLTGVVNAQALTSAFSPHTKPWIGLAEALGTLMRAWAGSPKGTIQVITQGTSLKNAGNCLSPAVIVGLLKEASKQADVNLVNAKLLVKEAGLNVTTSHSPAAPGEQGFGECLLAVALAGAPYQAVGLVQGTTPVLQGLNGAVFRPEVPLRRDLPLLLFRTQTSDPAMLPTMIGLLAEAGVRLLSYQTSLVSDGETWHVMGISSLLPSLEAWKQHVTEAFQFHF
Kind of data set: Inhibition of PHGDH (unknown origin) using 140 nM of PHGDH and 3-PG as substrate incubated for 20 mins in presence of NAD+, PSAT1, PSPH by diaphorase and resazurin dye based fluorescence assay. On the technique in general: The colour change of resazurin is a common sign of viable cells or microbes.

In data set [4] the target is T1, D-3-phosphoglycerate dehydrogenase. The data set is described as follows: Inhibition of PHGDH (unknown origin). Put shortly:
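Human PHGDH activity measured in an enzyme-coupled assay. NADH formed is coupled by diaphorase to resazurin reduction, and the fluorescent resorufin is read. Downstream enzymes PSAT1 and PSPH are added to the mix to prevent 3-PHP feedback inhibition. IC50 is derived from this assay. Some values were obtained with a low PHGDH concentration.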

The target is the same in data set [5]. The data set is described as follows: Mixed type inhibition of PHGDH (unknown origin) using 3-PG as substrate incubated for 20 mins in presence of , PSAT1, PSPH and varying NAD+ by diaphorase and resazurin dye based fluorescence assay.
Data set [6] shares this target. The data set is described as follows: Inhibition of PHGDH (unknown origin) by surface plasmon resonance method. (SPR reads the build-up and loss of mass on a sensor chip optically.)
Data set [7] can be described thus: Efflux ratio of apparent permeability across basolateral to apical over apical to basolateral side in MDCK cells overexpressing MDR1. Type of data set: ADME, cell-based, Canis lupus familiaris. As to conditions: dog.
Data set [8] addresses T1, D-3-phosphoglycerate dehydrogenase. Kind of data set: Inhibition of PHGDH (unknown origin) using 11 nM of PHGDH and 3-PG as substrate incubated for 20 mins in presence of NAD+, PSAT1, PSPH by diaphorase and resazurin dye based fluorescence assay.

A value given as a limit tells only on which side of the number the result lay.

With `Cn1c(C(=O)NC2(c3ccc(CO)cc3)COC2)cc2c(Cl)c(Cl)ccc21`, in data set [1], the Papp at 10 µM amounted to 15.4 ×10⁻⁶ cm/s. Besides, the Papp in data set [2] stood at 12.5 ×10⁻⁶ cm/s.
For `CONC(=O)Cc1ccc(C2(NC(=O)c3cc4c(Cl)c(Cl)ccc4n3C)COC2)cc1`, in data set [1], the Papp at 10 µM stood at 27.3 ×10⁻⁶ cm/s. For the same compound, the Papp in data set [2] amounted to 0.8 ×10⁻⁶ cm/s.
With `Cn1c(C(=O)NC2(c3ccc(CC(=O)O)c(F)c3)COC2)cc2c(Cl)c(Cl)ccc21`, the Papp at 10 µM in data set [1] amounted to 4.5 ×10⁻⁶ cm/s.
Take `Cn1c(C(=O)NC2(c3ccc(C(=O)O)c(F)c3)COC2)cc2c(Cl)c(Cl)ccc21`: the Papp in data set [2] was determined as 0.5 ×10⁻⁶ cm/s.
As usually defined, the IC50 is the midpoint of a concentration-inhibition curve. Regarding `Cn1c(C(=O)NC2(c3ccc(C(=O)O)cc3)COC2)cc2c(Cl)c(Cl)ccc21`, the Papp at 10 µM in data set [1] worked out at 5.2 ×10⁻⁶ cm/s. Moreover, the Papp in data set [2] came to 0.6 ×10⁻⁶ cm/s. For the same compound, the IC50 in data set [3] was determined as 153 nM.
As to `Cn1c(C(=O)NC2(c3ccc(C(CC(=O)O)c4cccnc4)cc3)COC2)cc2c(Cl)c(Cl)ccc21` (stereo not given), in data set [1], the Papp at 10 µM amounted to 1.6 ×10⁻⁶ cm/s.
With `Cn1c(C(=O)NC2(c3ccc(CC(=O)NS(C)(=O)=O)cc3)COC2)cc2c(Cl)c(Cl)ccc21`, the Papp in data set [2] is < 0.2 ×10⁻⁶ cm/s.
With `Cn1c(C(=O)NC2(c3ccc(C(=O)O)nc3)COC2)cc2c(Cl)c(Cl)ccc21`, in data set [1], the Papp at 10 µM was determined as 1.3 ×10⁻⁶ cm/s. Besides, the Papp in data set [2] came to 0.1 ×10⁻⁶ cm/s.
Usually Ki stands for a dissociation constant, usually derived from enzyme kinetics or from competition with a known ligand. With `O=C1NC[C@@H](COc2cc3[nH]c(C(=O)N[C@H](CO)c4ccc(C(=O)O)cc4)cc3cc2Cl)O1`, the 50% inhibitory concentration (IC50) is 260 nM in data set [4], 238 nM in data set [6] and 238 nM in data set [3]. Moreover, in data set [5], the Ki turned out to be 214 nM. Also, the Papp in data set [2] is < 0.2 ×10⁻⁶ cm/s.
Consider `Cn1c(C(=O)NC2(c3ccc([C@H](O)c4cccnc4)cc3)COC2)cc2c(Cl)c(Cl)ccc21`, for which the Papp at 10 µM in data set [1] is 25.2 ×10⁻⁶ cm/s. In addition, the Papp in data set [2] was determined as 0.61 ×10⁻⁶ cm/s.
Take `Cn1c(CNC2(c3ccc(C(=O)O)cc3)COC2)cc2c(Cl)c(Cl)ccc21`: in data set [7], the Ratio amounted to 1.5. In addition, the Papp in data set [2] was found to be 2.4 ×10⁻⁶ cm/s.
On to `COc1cc2c(cc1Cl)cc(C(=O)NC(CO)c1ccc(C(=O)O)cc1)n2C` (stereo not given), for which, in data set [2], the Papp amounted to 0.1 ×10⁻⁶ cm/s.
As for `Cn1c(C(=O)NC2(c3ccc(CC(=O)O)cc3)COC2)cc2c(Cl)c(Cl)ccc21`, the 50% inhibitory concentration (IC50) in data set [8] came out at 30 nM. For the same compound, the Papp in data set [2] was < 0.2 ×10⁻⁶ cm/s.
Consider `Cn1c(C(=O)NC2(c3ccc([C@@H](O)c4cccnc4)cc3)COC2)cc2c(Cl)c(Cl)ccc21`, for which the Papp at 10 µM in data set [1] is 20.8 ×10⁻⁶ cm/s. In addition, the Papp in data set [2] was 0.49 ×10⁻⁶ cm/s.
As to `CC(=O)OC(C)OC(=O)C(c1ccc(C2(NC(=O)c3cc4c(Cl)c(Cl)ccc4n3C)COC2)cc1)c1cccnc1` (stereo not given), the Papp at 10 µM in data set [1] was 11.8 ×10⁻⁶ cm/s. Further, the Papp in data set [2] worked out at 0.42 ×10⁻⁶ cm/s.
As to `Cn1c(C(=O)NC2(c3ccc(C(C(=O)O)c4cccnc4)cc3)COC2)cc2c(Cl)c(Cl)ccc21` (racemic), in data set [2], the Papp is < 0.2 ×10⁻⁶ cm/s.
